Data taken from ChEMBL document CHEMBL1131989, “Biological activity of fragments and analogues of the potent dimeric opioid peptide, biphalin” (Bioorg Med Chem Lett, 1999).

Amino acid sequences for entries named in this document (tags omitted).
UniProt P41143, whole entry: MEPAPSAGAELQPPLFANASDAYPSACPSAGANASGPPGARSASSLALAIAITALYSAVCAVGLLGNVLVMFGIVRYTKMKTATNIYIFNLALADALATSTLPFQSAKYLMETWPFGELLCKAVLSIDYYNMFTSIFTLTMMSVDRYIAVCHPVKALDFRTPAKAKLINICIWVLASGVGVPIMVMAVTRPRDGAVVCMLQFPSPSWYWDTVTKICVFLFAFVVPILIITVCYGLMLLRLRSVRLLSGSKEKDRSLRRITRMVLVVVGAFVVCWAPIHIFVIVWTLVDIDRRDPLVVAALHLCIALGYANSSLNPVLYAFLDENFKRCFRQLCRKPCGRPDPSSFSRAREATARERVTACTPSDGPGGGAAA

Target: Delta-type opioid receptor (Homo sapiens, UniProt P41143)
Assay: In vitro binding affinity towards Opioid receptor delta 1 was determined using […]

SMILES: C[C@@H](NC(=O)[C@@H](N)Cc1ccc(O)cc1)C(=O)NCC(=O)N[C@@H](Cc1ccccc1)C(=O)NNC(=O)[C@H](Cc1ccccc1)NC(=O)CNC(=O)[C@@H](C)NC(=O)[C@@H](N)Cc1ccc(O)cc1 [BIPHALIN]
- IC50: 2.6 nM
